Experimental findings from PubChem BioAssay AID583 (Sanford-Burnham Center for Chemical Genomics, 2007) are described below.

By UniProt entry, the sequences of proteins in these tests, tags left out.
UniProt P0DMV8, whole entry: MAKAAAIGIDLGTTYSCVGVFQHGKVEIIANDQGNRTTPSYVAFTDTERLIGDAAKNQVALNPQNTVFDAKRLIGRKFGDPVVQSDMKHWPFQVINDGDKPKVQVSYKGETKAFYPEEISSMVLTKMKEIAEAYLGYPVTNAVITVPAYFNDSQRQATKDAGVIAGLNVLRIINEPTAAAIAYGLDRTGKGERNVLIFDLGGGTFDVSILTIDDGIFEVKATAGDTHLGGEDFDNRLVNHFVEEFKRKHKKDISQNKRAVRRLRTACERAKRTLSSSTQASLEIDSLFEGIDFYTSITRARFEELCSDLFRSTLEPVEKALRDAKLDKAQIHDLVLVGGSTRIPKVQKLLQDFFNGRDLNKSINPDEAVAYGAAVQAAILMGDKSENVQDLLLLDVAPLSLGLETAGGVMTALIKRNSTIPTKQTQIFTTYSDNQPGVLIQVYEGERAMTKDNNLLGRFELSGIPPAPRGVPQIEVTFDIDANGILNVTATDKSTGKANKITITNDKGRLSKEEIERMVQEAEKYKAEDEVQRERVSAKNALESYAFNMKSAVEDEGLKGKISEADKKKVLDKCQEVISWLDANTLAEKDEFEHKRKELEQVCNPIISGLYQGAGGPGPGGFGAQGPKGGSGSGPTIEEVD

The entries are a selection whose mix differs from that of the whole data set. Some tests of the compounds listed are not included; inactive here does not mean inactive elsewhere. The source made the active and inactive calls. Rule as the data show it: active = displacement above about 50%; inactive = the rest.

This assay concerns the target Heat shock 70 kDa protein 1A (Homo sapiens) (UniProt P0DMV8). The experiment in a line: small molecules displacing fluorescent ligand from Hsp70 – biochemical, fluorescence polarization, primary screen (AID 583).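 Also: plate controls were vehicle for no effect and reference ligand for full effect.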 The conditions noted are these: Hsp70 fluorescence polarization probe displacement, mP; at 20 µM; stronger effect = higher value. A general note: In fluorescence polarisation assays a small probe gives low polarisation when free and higher when bound to something large.
In the case of `COc1ccc(OC)c(C=C(C#N)C#N)c1`, the displacement was inactive: 2%. Consider `O=C(OC1CN2CCC1CC2)C(CO)(c1ccccc1)c1ccccc1` (stereo not drawn), for which the displacement was inactive: 0.9%. In the case of `CN(C)c1cccc(C(=O)NCC2(N(C)C)CCCCC2)c1`, the displacement is inactive: -5%.
